AlphaSeq binding of Ab-91 heavy chain variants to a spike HR2 peptide

All variants were tested on one target, the spike HR2 peptide PDVDLGDISGINAS (SARS-CoV-2).

The variants keep the light chain, the linker and the frameworks of Ab-91 (scFv order VL, a (GGGGS)3 linker, VH).
VL: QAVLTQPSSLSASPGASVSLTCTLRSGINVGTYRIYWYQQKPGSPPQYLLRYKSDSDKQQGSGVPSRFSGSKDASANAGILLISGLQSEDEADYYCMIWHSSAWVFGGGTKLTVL
VH: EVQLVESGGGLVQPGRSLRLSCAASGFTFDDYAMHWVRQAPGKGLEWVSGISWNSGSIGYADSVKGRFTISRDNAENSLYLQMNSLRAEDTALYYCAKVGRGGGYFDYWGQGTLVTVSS

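The parent was found by panning a naive human phage display library on the peptide. AAYL51 was designed without a model: most single CDR substitutions and a random sample of double and triple ones. The assay is AlphaSeq: two haploid yeast populations carry antibody and antigen on their surface. Mating (16 h, 30 °C) was followed by selection of diploids and sequencing of their barcodes. The ratio of observed to expected reads was calibrated, replicate by replicate, on BCL2-family standards whose Kd was known from biolayer interferometry. Mating was done three times.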

Substitutions are numbered in sequence along the VH above, starting at 1 (not Kabat). All variants listed here change G26 of the VH, counted from its first residue. Each Kd is an estimate from the mating assay, the geometric mean of the replicates in which the pair was seen; lower is stronger. Where no diploid with the target was found in any replicate, the entry reads "nd": below detection, most likely a poor binder, though not proof of it. As a blank, each scFv also met three strains without target: over library AAYL51, 21% of these pairings were detected, typically at 34 µM and seldom below 1.8 µM. Also given: how often the same scFv was detected with the empty control strains.

For G26H+F106T+D107W, the assay gave 280 µM (2 of 3 replicates; controls 4 of 9). Variant G26M+G50D+V64T gave nd (0 of 3 replicates; controls 1 of 9). Variant G26Y+W53K+R101C gave 72 µM (1 of 3 replicates; controls 0 of 9). With G26R+H35V the result was nd (0 of 3 replicates; controls 0 of 9). Variant G26S+V99L+G100K showed 120 µM (3 of 3 replicates; controls 6 of 9). With G26V+F27T+A33M the result was nd (0 of 3 replicates; controls 2 of 9). For G26S+F27K+Y108A, the assay gave nd (0 of 3 replicates; controls 0 of 9). Variant G26H gave 450 nM (3 of 3 replicates; controls 9 of 9).

Variant G26F+G103R+Y105M showed 440 µM (2 of 3 replicates; controls 3 of 9). With G26K+D30Y+V99T the result was 170 µM (1 of 3 replicates; controls 1 of 9). Variant G26C+S55H+G102N gave nd (0 of 3 replicates; controls 0 of 9). For G26Q+N54H+G102D, the assay gave 190 µM (3 of 3 replicates; controls 4 of 9). For G26I+D62E+V99N, the assay gave nd (0 of 3 replicates; controls 0 of 9). Variant G26Q+D31E+Y108P gave nd (0 of 3 replicates; controls 0 of 9). Variant G26I+G59F+Y105N gave nd (0 of 3 replicates; controls 4 of 9). For G26D+M34H+V64P, the assay gave 33 µM (1 of 3 replicates; controls 1 of 9).

Variant G26D+D30K+Y108H showed 12 nM (3 of 3 replicates; controls 1 of 9). With G26K+Y60M+S63L the result was 240 µM (3 of 3 replicates; controls 8 of 9). With G26D+I58S+Y60V the result was 210 µM (2 of 3 replicates; controls 4 of 9). For G26D+T28V+D31A, the assay gave nd (0 of 3 replicates; controls 0 of 9). For G26P+A33T+S63L, the assay gave 32 µM (3 of 3 replicates; controls 8 of 9). With G26N+K65V+F106S the result was 130 µM (1 of 3 replicates; controls 3 of 9). With G26C+H35C+G103C the result was 3.9 µM (3 of 3 replicates; controls 7 of 9). Variant G26A+Y108F showed nd (0 of 3 replicates; controls 1 of 9).

For G26H+D62N+V64H, the assay gave nd (0 of 3 replicates; controls 0 of 9). Variant G26L+T28H+F29S showed nd (0 of 3 replicates; controls 0 of 9). Variant G26Y+Y60A+F106I gave 49 µM (1 of 3 replicates; controls 4 of 9). Variant G26Y+D62M+S63K showed nd (0 of 3 replicates; controls 0 of 9). Variant G26E+Y60P+G102I showed 99 µM (1 of 3 replicates; controls 1 of 9). Variant G26H+F29A+G104M showed nd (0 of 3 replicates; controls 1 of 9). Variant G26F+A61E showed nd (0 of 3 replicates; controls 2 of 9). For G26C+F29D+W53F, the assay gave 63 µM (1 of 3 replicates; controls 1 of 9).

Variant G26P+R101T gave nd (0 of 3 replicates; controls 1 of 9). Variant G26F+V64P+G104A gave nd (0 of 3 replicates; controls 0 of 9). For G26Q+V64I+G102F, the assay gave 6.2 µM (3 of 3 replicates; controls 5 of 9). Variant G26E gave nd (0 of 3 replicates; controls 1 of 9). Variant G26Q+D30M gave 1.8 µM (3 of 3 replicates; controls 2 of 9). Variant G26W+V99N gave 9.4 µM (2 of 3 replicates; controls 2 of 9). With G26L+S55G+I58K the result was 41 nM (3 of 3 replicates; controls 5 of 9). For G26Q+D30I+G100E, the assay gave nd (0 of 3 replicates; controls 2 of 9).

Variant G26E+F27D+N54H gave nd (0 of 3 replicates; controls 0 of 9). Variant G26Y+F29S+D31Y showed 78 µM (2 of 3 replicates; controls 4 of 9).

The 3 strongest on average among those seen in every replicate, once more:

For G26D+D30K+Y108H, the assay gave 12 nM (3 of 3 replicates; controls 1 of 9).
For G26L+S55G+I58K, the assay gave 41 nM (3 of 3 replicates; controls 5 of 9).
For G26H, the assay gave 450 nM (3 of 3 replicates; controls 9 of 9).

From the AlphaSeq antibody data of Engelhart et al. 2022 (doi:10.1038/s41597-022-01779-4), copy in the FLAb collection.